Most compounds without a hit are left out; they make up all but 1.2% or so of the library.
Arrestin-AP2 inh = inhibitors of beta-arrestin/AP2 binding, primary screen, biochemical, GPCR trafficking, flow cytometry; beta-arrestin 1 C-terminal peptide binding to AP2 beta2-adaptin appendage (human); inhibition, % at 10 µM; 340,000 compounds, 0.31% hits; FITC-arrestin peptide / GST-AP2 beads; AP2 beta2 appendage carries R879A mutation; AID 504490, 2011;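 active means inhibition above a set limit, near 3 SD of compounds lacking own fluorescence, cut at about 54% in these data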;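 further: plate controls were DMSO wells for no effect and 5 µM unlabelled arrestin peptide for full effect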
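system = GST-tagged AP2 beta2-adaptin appendage (R879A) on 4 µm glutathione beads | reagent = FITC-labelled arrestin peptide probe, 50 nM final | schedule = compound with beads 12 min RT, then probe 1 h RT | signal = HyperCyt-sampled flow cytometry, FL1 channel, ex 488/em 535 nm | read-out = percent response from loss of bead-bound FITC fluorescence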
Tb MetRS inh = T. brucei MetRS inhibitors, primary screen, biochemical, luminescence. methionyl-tRNA synthetase (Trypanosoma brucei brucei). purified T. brucei MetRS, ATP depletion, Kinase-Glo luminescence. inhibition, % at 11.9 µM. 360,000 compounds, 0.4% hits. AID 624268, 2012;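 active means inhibition above a per-plate cutoff of the control wells' mean inhibition plus 3 SD, cut at about 5.5% in these data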;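 further: 0% = DMSO wells median and 100% = median of wells with control inhibitor compound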
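System: purified T. brucei MetRS enzyme / Detection: Kinase-Glo luciferase luminescence reporting remaining unconsumed ATP / Medium: HEPES buffer with MgCl2, KCl, DTT, spermine, BSA, pyrophosphatase / Replication: singlicate, one well per compound / Evaluation: percent inhibition relative to median high and low control wells / Schedule: 2 h aminoacylation at 25 °C after 15 min preincubation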
UUG fidelity = yeast start codon fidelity modulation; AID 602363; activity score, % at 18.7 µM; S. cerevisiae UUG-firefly luciferase reporter, luminescence/redox ratio; 0.13% of 350,000 active;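 active means replicate mean at a twofold rise or more, about +100% in these data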;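 further: firefly luciferase made from a UUG start codon reports start codon fidelity; reporter light over untreated wells divided by growth signal over untreated wells; some hits fall short of that in this replicate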
DSG3 Ab inh = inhibitors of pemphigus antibody binding to DSG3, primary screen, biochemical, bead-based, flow cytometry, scFv-GFP. Desmoglein-3 (Homo sapiens), P32926. DSG3-coupled beads, scFv-anti-DSG3-GFP binding; hits give low values. binding (percent of control), % at 10 µM. 310,000 compounds, 0.48% hits. AID 588358, 2011;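 active means binding more than 3 SD below its plate's average and above zero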;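 further: hits lower antibody fragment binding to DSG3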
Rce1 inhib = yeast Rce1p protease inhibitors, primary screen, biochemical, fluorescence, cell-free homogeneous; CAAX prenyl protease 2 (Saccharomyces cerevisiae (strain ATCC 204508 / S288c)), Q03530; yeast membranes, quenched prenylated peptide cleavage fluorescence; calls only; 290,000 compounds, 0.27% hits;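 active means fall in fluorescence gain of 50% or more versus controls, with final raw signal at or below 3038400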;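 further: plate controls were neutral control wells for no effect and wells lacking membranes for full effect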
Starred values were filed as active, the others as inactive; i = inactive; . = no result given; + = active, no number.

Amino acid sequences for entries named in this document (tags omitted).
Desmoglein-3 (Homo sapiens), P32926, UniProt P32926, whole entry, looked up: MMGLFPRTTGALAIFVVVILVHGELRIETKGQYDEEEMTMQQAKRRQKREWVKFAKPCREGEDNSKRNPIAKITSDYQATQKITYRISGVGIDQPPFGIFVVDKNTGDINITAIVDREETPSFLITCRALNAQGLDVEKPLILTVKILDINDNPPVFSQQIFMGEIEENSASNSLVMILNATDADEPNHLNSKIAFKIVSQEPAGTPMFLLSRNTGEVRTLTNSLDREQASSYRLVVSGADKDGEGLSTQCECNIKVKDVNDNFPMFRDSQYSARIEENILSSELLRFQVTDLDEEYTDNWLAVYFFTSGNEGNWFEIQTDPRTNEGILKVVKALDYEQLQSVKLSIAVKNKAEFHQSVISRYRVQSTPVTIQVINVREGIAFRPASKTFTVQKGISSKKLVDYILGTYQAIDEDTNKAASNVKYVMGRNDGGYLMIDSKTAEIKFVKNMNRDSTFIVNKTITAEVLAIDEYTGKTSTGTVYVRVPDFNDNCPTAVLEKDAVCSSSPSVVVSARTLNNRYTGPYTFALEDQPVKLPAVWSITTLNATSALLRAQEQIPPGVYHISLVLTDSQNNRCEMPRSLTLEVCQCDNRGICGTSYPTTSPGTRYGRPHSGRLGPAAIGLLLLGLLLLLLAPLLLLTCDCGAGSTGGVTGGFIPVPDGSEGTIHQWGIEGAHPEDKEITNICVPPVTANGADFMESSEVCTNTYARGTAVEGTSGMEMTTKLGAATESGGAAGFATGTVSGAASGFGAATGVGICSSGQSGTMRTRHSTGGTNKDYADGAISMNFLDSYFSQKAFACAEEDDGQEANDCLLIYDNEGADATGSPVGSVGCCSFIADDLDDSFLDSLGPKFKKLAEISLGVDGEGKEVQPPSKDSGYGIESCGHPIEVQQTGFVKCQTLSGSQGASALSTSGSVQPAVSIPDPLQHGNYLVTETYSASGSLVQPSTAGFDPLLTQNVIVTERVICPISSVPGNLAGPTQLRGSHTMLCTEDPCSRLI

structure | Arrestin-AP2 inh | Tb MetRS inh | UUG fidelity | DSG3 Ab inh | Rce1 inhib
C[C@H]1CN([C@@H](C)CO)C(=O)c2cc(C#CCc3ccccc3)cnc2O[C@@H]1CN(C)CC1CCCC1 | . | . | -6 | . | .
C[C@H](NC(=O)C[C@H]1C=C[C@@H](NC(=O)CN2CCOCC2)[C@@H](CO)O1)c1ccccc1 | . | . | 8 | . | .
Clc1cccc(CN2CCc3c([nH]c4ccccc34)C2)c1Cl | 40 | 0 | . | 103 | +
COc1cc(CN2CCc3c([nH]c4ccccc34)C2)cc(OC)c1 | -7 | 5 | 4 | 160 | .
CCOc1cc(S(=O)(=O)N(Cc2ccccc2)Cc2ccccc2)c(OCC)cc1-n1cnnn1 | -5 | 0 | -1 | 101 | +
COC(=O)c1cc(/C=C/c2ccccc2)on1 | 7 | -1 | -9 | -27* | i
COc1ccc2[nH]c(C(=O)NCCCn3ccnc3)cc2c1 | 34 | 0 | -20 | 86 | +
Cc1ccc(CNC(=O)COC(=O)Cc2ccc(-c3ccccc3)cc2)cc1 | -2 | 0 | -14 | 93 | i
O=C(COC(=O)Cc1ccc(-c2ccccc2)cc1)NCc1ccc(F)cc1 | 8 | 1 | . | 19* | i
COc1ccc(N2CCN(S(=O)(=O)c3cccc(C(F)(F)F)c3)CC2)cc1 | -3 | 1 | -13 | -25* | i
O=C1c2ccccc2C(=O)N1CCCn1ccnc1 | 32 | -1 | -16 | 91* | i
Cc1cccc(C(=O)NNC(=O)c2cc3cc4ccccc4nc3s2)c1 | -6 | -1 | -14 | . | i
Cc1ccc(S(=O)(=O)NNC(=O)c2cc3cc4ccccc4nc3s2)cc1 | 4 | 8.3* | -12 | . | i
Cc1ccccc1OCC(=O)Nc1ccccc1-c1ccccc1 | 9 | -1 | . | 8.5* | i
C[C@@H]1CCCCO[C@@H](CN(C)C(=O)Cc2ccccc2)[C@H](C)CN([C@@H](C)CO)C(=O)c2cc(NC(=O)Nc3cccc4ccccc34)ccc2O1 | . | . | -13 | . | .
Cc1noc(C)c1S(=O)(=O)Nc1ccc2c(c1)C(=O)N([C@H](C)CO)C[C@@H](C)[C@@H](CN(C)Cc1ccc(Oc3ccccc3)cc1)O2 | . | . | 13 | . | .
CN(C[C@@H]1N[C@H](CO)[C@@H]1c1ccc(C2=CCCCC2)cc1)S(C)(=O)=O | . | . | -23 | . | .
CCOC(=O)[C@@H]1[C@H]2COc3ccc(Br)cc3[C@@H]2N2C(=O)N(c3cccc(Cl)c3)C(=O)[C@]12C | 31 | 0 | -18 | 101 | +
CCOC(=O)[C@@H]1[C@H]2COc3ccc(Br)cc3[C@@H]2N2C(=O)N(c3cccc(Cl)c3)C(=O)[C@@]12C | -5 | 0 | -18 | 95 | .
COc1ccc(CN(C)C[C@@H]2OCCCC[C@@H](C)Oc3ccc(NS(=O)(=O)c4c(C)noc4C)cc3C(=O)N([C@H](C)CO)C[C@H]2C)cc1 | . | . | 8 | . | .
C[C@@H]1CCCCO[C@@H](CN(C)S(=O)(=O)c2cn(C)cn2)[C@@H](C)CN([C@@H](C)CO)C(=O)c2cc(NS(=O)(=O)c3ccc(Cl)cc3)ccc2O1 | . | . | 25 | . | .
CC(C)NC(=O)N(C)C[C@@H]1OCCCC[C@H](C)Oc2ccc(NS(=O)(=O)c3cn(C)cn3)cc2C(=O)N([C@@H](C)CO)C[C@@H]1C | . | . | -4 | . | .
CC1(C)CCCN(C(=O)c2coc(=O)c(Br)c2)C1 | 1 | 1 | 8 | 97 | +
CCCCCCCCC[n+]1cccc2c3ccccc3ccc21 | 2 | 5.7* | . | 110 | i
C[C@H](CO)N1C[C@H](C)[C@@H](CN(C)C)Oc2ccc(NS(=O)(=O)c3cccs3)cc2CC1=O | . | . | 15 | . | .
CCCCNS(=O)(=O)c1ccc2nc(SCC(=O)c3ccccc3OC)[nH]c2c1 | 5 | 13* | -19 | 106 | i
CNC(=O)C[C@H]1CC[C@H]2[C@@H](COc3ccc(NC(=O)Nc4cccc(C)c4)cc3C(=O)N2C)O1 | . | . | 4 | . | .
O=C(CCc1ccc(S(=O)(=O)NC2CCCCC2)cc1)Nc1ccccc1 | -4 | -1 | -24 | 104 | i
CC(C)C(=O)NC(=S)Nc1ccc(S(=O)(=O)NC2CCCCC2)cc1 | -6 | 0 | -9 | 105 | i
Cc1cccc(OCC(=O)NC(=S)Nc2ccc(S(=O)(=O)NC3CCCCC3)cc2)c1 | -3 | -1 | -16 | 63* | i

Following part
structure | Arrestin-AP2 inh | Tb MetRS inh | UUG fidelity | DSG3 Ab inh | Rce1 inhib
Cc1ccc(NC(=O)CCc2ccc(S(=O)(=O)NC3CCCCC3)cc2)cc1 | -2 | -1 | -13 | 113 | +
Cc1noc(C)c1NC(=O)Nc1cccc2c1O[C@H](CN(C)S(=O)(=O)c1ccc(F)cc1)[C@H](C)CN([C@H](C)CO)C2=O | . | . | 3 | . | .
C/C(CC1(O)C(=O)Nc2ccccc21)=N\O (stereo not given) | 47 | -1 | 1 | 100 | +
O=S(=O)(c1ccc(S(=O)(=O)N2CCN(C3CCCCC3)CC2)cc1)N1CCCCCC1 | 20 | -1 | -16 | 98 | .
O=c1[nH]c2ccc(S(=O)(=O)N3CCN(C4CCCCC4)CC3)cc2[nH]c1=O | -3 | 0 | -6 | 101 | +
COc1ccc(-c2cn3c(C)c(C(=O)NC(C)C)sc3n2)cc1 | -2 | 0 | -5 | 47* | i
CC(C)NC(=O)Nc1ccc2c(c1)CC(=O)N([C@@H](C)CO)C[C@H](C)[C@@H](CN(C)C(=O)Nc1cccc3ccccc13)O2 | . | . | 0 | . | .
COc1cccc2[nH]c(C(=O)NC(C)c3ccccc3)cc12 (stereo not given) | -21 | -1 | -6 | 92 | +
O=C(Cc1ccc(Cl)cc1Cl)NC1CCCCCC1 | 5 | -1 | 3 | 24* | i
C[C@H](CO)N1C[C@H](C)[C@@H](CN(C)S(=O)(=O)c2ccccc2)Oc2c(NC(=O)C3CCOCC3)cccc2C1=O | . | . | 1 | . | .
CCOC(=O)C1=C(O)/C(=C/c2ccc(-c3ccccc3C(=O)O)o2)SC1=Nc1ccc(C)cc1 | 16 | -1 | -22 | 71* | .
Cc1ccc(NC(=O)CCC(=O)c2ccccc2)cc1 | -9 | 0 | 5 | 71* | .
C[C@@H]1CCCCO[C@@H](CN(C)CC2CCCCC2)[C@H](C)CN([C@@H](C)CO)C(=O)c2cc(NC(=O)CCC(F)(F)F)ccc2O1 | . | . | 26 | . | .
C[C@H](CO)N1C[C@H](C)[C@H](CN(C)S(=O)(=O)c2cn(C)cn2)Oc2c(NS(=O)(=O)c3ccccc3)cccc2C1=O | . | . | -11 | . | .
O=C(C[C@H]1C[C@H]2c3cc(NC(=O)C4CCC4)ccc3O[C@H]2[C@H](CO)O1)NCc1ccccc1F | . | . | 11 | . | .
COc1ccc(-c2cc3ccc(OCc4nn[nH]n4)cc3oc2=O)cc1OC | -7 | 0 | 1 | 101 | +

Some of the entries so far, with two lines to a compound:
Every second line gives: Arrestin-AP2 inh, Tb MetRS inh, UUG fidelity, DSG3 Ab inh, Rce1 inhib
> O=c1[nH]c2ccc(S(=O)(=O)N3CCN(C4CCCCC4)CC3)cc2[nH]c1=O
    -3, 0, -6, 101, +
> COc1ccc(-c2cn3c(C)c(C(=O)NC(C)C)sc3n2)cc1
    -2, 0, -5, 47*, i
> CC(C)NC(=O)Nc1ccc2c(c1)CC(=O)N([C@@H](C)CO)C[C@H](C)[C@@H](CN(C)C(=O)Nc1cccc3ccccc13)O2
    ., ., 0, ., .
> COc1cccc2[nH]c(C(=O)NC(C)c3ccccc3)cc12 (stereo not given)
    -21, -1, -6, 92, +

As a working copy, two of the compounds above:
structure | Arrestin-AP2 inh | Tb MetRS inh | UUG fidelity | DSG3 Ab inh | Rce1 inhib
Cc1ccc(NC(=O)CCc2ccc(S(=O)(=O)NC3CCCCC3)cc2)cc1 | -2 | -1 | -13 | 113 | +
Cc1noc(C)c1NC(=O)Nc1cccc2c1O[C@H](CN(C)S(=O)(=O)c1ccc(F)cc1)[C@H](C)CN([C@H](C)CO)C2=O | . | . | 3 | . | .

High-throughput results as filed in PubChem BioAssay.
